# Test system: C57BL/6 mice
# Conditions: mouse, in vivo
structure (smiles),measurement,value
"CCN1CCN(c2cc3c(cc2F)c(=O)c(C(=O)O)cn3C2CC2)CC1 [enro, enrofloxacin, reference compound]",serum endotoxin levels,increase in serum endotoxin levels

# Reference: US11672834B2, “Probiotic and prebiotic compositions, and methods of use thereof for modulation of the microbiome” (Evelo Biosciences, Inc., priority 2014, dated 2023)
